Results from patent US20120238630A1, “COMPOSITIONS COMPRISING NONSTEROIDAL ANTI - INFLAMMATORY DRUGS” (Alfa Wassermann S.P.A., priority 2009, published 2012).

Assay: Bioavailability / systemic FP plasma concentration after oral nebulization of the liquid composition containing FP
Format: in vivo, human
Settings: after the last administration (day 8)
Method: The liquid compositions containing FP, object of the present invention, have been tested in a clinical study to evaluate the local and systemic tolerability after repeated dosages and to determine the kinetic profiles indicating the levels of systemic absorption. The solutions have been administered to 26 healthy volunteers, among whom 16 were males and 10 females, aged between 18 and 55.
The healthy volunteers received the pharmaceutical composition prepared according to Example 1 in two 200 μl nebulizations three times a day, for a seven-day period, then a single administration on the eighth day. […]
After the end of the treatment, the FP concentration has been determined for further 24 hours corresponding to hour 1, 2, 3, 4, 6, 8, 10, 12, 16 and 24 after the last administration. […]
The plasma concentration was determined for each patient before the first dose and, successively, in the morning of the days 1, 4, 6, 7 and 8 and after 1, 2, 3, 4, 6, 8, 10, 12, 16 and 24 hours since the last treatment. […]
The concentration of FP contained in plasma is represented by the average of the values obtained by the analysis carried out with the method validated in HPLC by using a reversed phase column Hypersil C8 having a size 150×4.6 mm, with 5 μm particles. […] The following parameters were determined: […]
AUC: area subtended to the concentration-time curve calculated by means of the linear trapezoidal rule. […]

For “2-(2-fluoro-4-phenyl-phenyl) propionic acid [FP]”, the “removal time (T1/2)” value was 4.47 ± 1.7 h and the “FP half-life (T1/2)” value (unit not given) was 4.47.
